“Also recorded” adds a separate entry of the source.

These results are taken from US7666985B2, “HLA-A24-restricted cancer antigen peptides” (International Institute of Cancer Immunology, Inc., priority 2002, dated 2010).

This assay deals with Jurkat-A2402/K^b cells pulsed with the peptide. In words: CTL-inducing activity (immunogenicity) in HLA-A2402/K^b transgenic mouse, 51Cr release assay. It counts as in vivo. The note with it: HLA-A2402/K^b transgenic mice (three per peptide) immunized s.c. with peptide + helper peptide in IFA; splenocytes stimulated in vitro 6 days; peptide-pulsed vs non-pulsed Jurkat-A2402/K^b targets; E/T ratio of 80. The protocol:
[…]; SEQ ID NO: 32), and examined whether specific CTLs are induced as is the case with human. Specifically, HER-2/neu780-788 and helper peptide were adjusted to 40 mg/ml and 20 mg/ml, respectively, in DMSO and diluted with a physiological saline to 2 mg/ml and 1 mg/ml, respectively. They were mixed with an equal amount of Freund's incomplete adjuvant (Wako Pure Chemical Industries, Ltd.) using a glass syringe to prepare a water-in-oil emulsion. The resultant preparation (200 μl) was injected into a transgenic mouse (04-1 line) subcutaneously in the base of the tail for immunization. Seven days after the initiation of experiment, the spleen was removed and grounded on the frosted part of glass slide, and splenocytes were recovered and prepared. A portion of the splenocytes undergone hemolysis treatment with an ACK buffer (0.15 M NH4Cl, 10 mM KHCO3, 0.1 mM EDTA, pH 7.2-7.4) was exposed to X ray radiation (2,000 rad), pulsed with the above-mentioned peptide (100 μg/ml) for 1 hour, and seeded into a 24-well plate at 0.7×10^6/well. […]
CTL-inducing activity was determined by ^51Cr release assay (J. Immunol., 159:4753, 1997), wherein the previously prepared transgenic mouse splenocyte preparation was added to said Jurkat-A2402/K^b cells as the target cells.
Immunogenicity of each antigen peptide was evaluated using the HLA-A2402/K^b transgenic mouse as constructed in aforementioned References. […]

For the substance “Arg Met Phe Pro Asn Ala Pro Tyr Leu (RMFPNAPYL) [peptide A, natural peptide, positions 126 to 134 of human WT1]”, the “immunogenicity (activity to induce CTLs; cytotoxic activity, % Specific Lysis)” value is on record as “have no immunogenicity; also recorded: no specific CTL was induced”.
